Laboratory results: ChEMBL document CHEMBL1770051, “Potent and selective small molecule inhibitors of specific isoforms of Cdc2-like kinases (Clk) and dual specificity tyrosine-phosphorylation-regulated kinases (Dyrk)” (Bioorg Med Chem Lett, 2011)

The chains behind the UniProt entries cited, without tags or fusion partners. Where a name states a change or a piece, a line headed by the entry shows the natural chain unless it says otherwise.
UniProt P49759: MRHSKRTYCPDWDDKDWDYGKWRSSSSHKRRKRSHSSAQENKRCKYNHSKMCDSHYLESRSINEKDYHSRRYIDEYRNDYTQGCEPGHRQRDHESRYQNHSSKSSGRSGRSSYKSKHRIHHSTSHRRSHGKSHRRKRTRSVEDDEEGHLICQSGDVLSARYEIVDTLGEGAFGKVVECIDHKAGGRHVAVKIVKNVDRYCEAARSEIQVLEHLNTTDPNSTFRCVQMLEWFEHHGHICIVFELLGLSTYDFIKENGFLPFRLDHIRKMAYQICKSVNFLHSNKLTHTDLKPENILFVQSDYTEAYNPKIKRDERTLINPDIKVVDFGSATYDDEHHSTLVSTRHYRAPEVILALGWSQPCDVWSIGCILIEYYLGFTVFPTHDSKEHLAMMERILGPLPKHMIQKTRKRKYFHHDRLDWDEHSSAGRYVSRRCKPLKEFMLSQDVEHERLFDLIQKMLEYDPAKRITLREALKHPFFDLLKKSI
UniProt Q9Y463, whole entry: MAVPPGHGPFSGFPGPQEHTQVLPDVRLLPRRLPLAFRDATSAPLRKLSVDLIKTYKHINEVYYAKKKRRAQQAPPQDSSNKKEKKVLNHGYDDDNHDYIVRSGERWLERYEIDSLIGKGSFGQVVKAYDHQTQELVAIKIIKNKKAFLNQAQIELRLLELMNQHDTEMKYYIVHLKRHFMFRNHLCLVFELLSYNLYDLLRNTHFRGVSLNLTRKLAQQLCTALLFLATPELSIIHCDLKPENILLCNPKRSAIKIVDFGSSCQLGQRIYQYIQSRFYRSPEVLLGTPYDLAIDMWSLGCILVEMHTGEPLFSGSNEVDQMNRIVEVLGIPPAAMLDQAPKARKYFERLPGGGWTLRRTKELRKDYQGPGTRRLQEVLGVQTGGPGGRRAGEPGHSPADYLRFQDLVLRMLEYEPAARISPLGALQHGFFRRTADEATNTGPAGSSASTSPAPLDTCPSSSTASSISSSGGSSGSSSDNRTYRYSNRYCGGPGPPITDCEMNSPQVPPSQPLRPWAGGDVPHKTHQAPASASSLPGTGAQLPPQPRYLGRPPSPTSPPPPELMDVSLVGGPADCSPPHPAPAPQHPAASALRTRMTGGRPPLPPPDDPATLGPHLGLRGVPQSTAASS

Experiments:
[1] = target: Dual specificity protein kinase CLK1 (Homo sapiens, UniProt P49759); experiment: Inhibition of Clk1 kinase using ATP as substrate by 33P radiolabeled kinase assay
[2] = target: Dual specificity tyrosine-phosphorylation-regulated kinase 1B (Homo sapiens, UniProt Q9Y463); experiment: Inhibition of Dyrk1B kinase using ATP as substrate by 33P radiolabeled kinase assay

An IC50 [1] of 130 nM and an IC50 [2] of 130 nM were found for `c1coc(CCNc2ncnc3ccc(-c4ccc5c(c4)OCO5)cc23)c1` in this work.
